Data on one substance can be found in article PMC4396990, “Targeting Vascular Endothelial Growth Factor Receptor 2 and Protein Kinase D1 Related Pathways by a Multiple Kinase Inhibitor in Angiogenesis and Inflammation Related Processes In Vitro” (PLoS ONE, 2015).

For this assay, the target named is T1, PKD1 (Homo sapiens, UniProt Q15139).
T1 construct: gene PRKD1
T1 sequence (Q15139 1-912): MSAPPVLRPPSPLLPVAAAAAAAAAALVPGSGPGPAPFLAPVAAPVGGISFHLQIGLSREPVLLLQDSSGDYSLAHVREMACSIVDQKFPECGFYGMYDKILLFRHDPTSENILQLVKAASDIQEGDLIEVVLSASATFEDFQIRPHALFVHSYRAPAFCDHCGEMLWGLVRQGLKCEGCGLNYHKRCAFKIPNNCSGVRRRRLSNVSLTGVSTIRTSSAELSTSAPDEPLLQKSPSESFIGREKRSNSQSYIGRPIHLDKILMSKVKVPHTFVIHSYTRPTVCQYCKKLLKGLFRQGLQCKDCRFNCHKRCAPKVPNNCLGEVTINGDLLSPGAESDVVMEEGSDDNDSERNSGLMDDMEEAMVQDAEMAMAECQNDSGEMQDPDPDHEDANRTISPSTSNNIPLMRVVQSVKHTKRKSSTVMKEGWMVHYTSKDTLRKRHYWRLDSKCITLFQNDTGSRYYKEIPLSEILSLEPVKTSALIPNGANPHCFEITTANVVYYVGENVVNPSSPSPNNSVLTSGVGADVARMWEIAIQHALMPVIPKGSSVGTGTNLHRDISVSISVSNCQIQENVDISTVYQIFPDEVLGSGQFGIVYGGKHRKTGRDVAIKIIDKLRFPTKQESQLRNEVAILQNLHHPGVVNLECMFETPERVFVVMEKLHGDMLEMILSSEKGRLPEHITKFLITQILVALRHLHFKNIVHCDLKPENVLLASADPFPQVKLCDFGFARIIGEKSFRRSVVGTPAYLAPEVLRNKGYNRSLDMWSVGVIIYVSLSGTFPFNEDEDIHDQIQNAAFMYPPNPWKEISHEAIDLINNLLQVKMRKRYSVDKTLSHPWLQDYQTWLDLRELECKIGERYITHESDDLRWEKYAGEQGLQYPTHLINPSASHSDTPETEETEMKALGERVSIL
As to the kind of experiment: recombinant kinase assay (IMAP fluorescence polarization, TAMRA-peptide). The class given is biochemical. Background: Polarisation of emitted light reports the rotation of a fluorescent probe.

One may read the IC50 as the concentration that gives 50% inhibition.

With kb-NB142-70 [reference compound], the IC50 came to 26 nM.
